{"source": "patent US12281122B1", "about": "“PI3K inhibitors” (Cogent Biosciences, Inc., priority 2023, dated 2025)", "key": {"PI3Kα": {"molecular_target": "PI3Kα (Homo sapiens, UniProt P42336)", "assay": "PI3Kα enzyme assay (Transcreener ADP2 TR-FRET Red Assay)", "details": "read-out: PI3Kα WT IC50; purified recombinant full-length protein; 2 hours pre-incubation with compound", "experimental": "(§1) Activity against PI3Kα and PI3Kα H1047R enzymes were determined in biochemical assays using purified recombinant full-length proteins with the Transcreener ADP^2 TR-FRET Red Assay from Bellbrook Labs. (Catalogue number 3011-10K). Test compounds were dissolved in DMSO and were tested in 11 point 1:3 serial dilutions, typical final concentration range from 50,000 nM to 0.85 nM. Enzymes were pre-incubated with compounds for 2 hours at room temperature prior to initiating the reactions. Assays were initiated with a 2×ATP/PI(4,5)P2 diC8 substrate mixture. After 60 minutes at room temperature, the reactions were quenched with detection reagent and incubated for an additional 60 minutes at room temperature. The plates were read using a multimode reader and the emission ratio of 665 nm to 615 nm was determined. This ratio was converted to percent of control (POC). [1-(high control-sample signal)/(high control-low control)]*100. Wells without compound were used to determine high control values and wells without enzyme were used to determine low control values. The POC values were fit using a four-parameter logistic model and the value where the fit curve was equal to 50 POC was reported as the IC50 using the Signals VitroVivo software package (PerkinElmer). Final assay conditions were: 40 mM HEPES pH 7.5, 20 mM NaCl, 25 mM MgCl2, 0.01% Triton X-100. […]"}, "PI3Kα H1047R": {"molecular_target": "PI3Kα H1047R (Homo sapiens, UniProt P42336, H1047R)", "assay": "PI3Kα H1047R enzyme assay (Transcreener ADP2 TR-FRET Red Assay)", "details": "read-out: PI3Kα H1047R IC50; purified recombinant full-length protein; 2 hours pre-incubation with compound", "experimental": "as §1"}, "[1]": {"system": "T47D (PI3Kα-H1047R) cell line", "assay": "HTRF phospho-AKT(S473) cell assay in T47D cells", "details": "read-out: T47D IC50, 2 hours compound incubation", "experimental": "(§2) Compounds in the present disclosure were tested in a cell based HTRF phospho-AKT(S473) (CisBio/Revvity) assay in human breast cancer cell lines as a measurement of PIK3CA activity through measuring AKT, a downstream effector. The activity of mutant PI3Kα-H1047R and PI3Kα-Wild Type was measured in the T47D (PI3Kα-H1047R) and SKBR3 (PI3Kα-Wild Type) cell lines, respectively. T47D cells were plated at 20,000 cells per well in 50 μL in RPMI medium supplemented with 10% FBS and 0.2 units/mL insulin, in 384 well plates. SKBR3 cells were plated at 25,000 cells per well in 50 μL in McCoy's 5A medium supplemented with 10% FBS, in 384 well plates. Cells were plated using a Combi Multidrop reagent dispenser (ThermoFisher), and placed in 5% CO2, 37° C. incubator overnight to adhere.\n(§3) The next day, cells were treated with either compounds or vehicle (DMSO) in a 12-fold dose response curve of 1:3 dilutions, with 5 μM and 10 μM as the top concentrations for the T47D and SKBR3 cell lines, respectively. Compound treatment was facilitated via the D300e digital dispenser (Tecan), with a maximum DMSO concentration of 0.5%. Following compound addition, cell plates were incubated for 2 hours in 5% CO2, 37° C. incubator. […]\n(§4) The following day, plates were centrifuged for 1 minute at 1000 rpm, and read on a PHERAstar plate reader. IC50 values were calculated using Spotfire software."}, "[2]": {"system": "SKBR3 (PI3Kα-Wild Type) cell line", "assay": "HTRF phospho-AKT(S473) cell assay in SKBR3 cells", "details": "read-out: SKBR3 IC50, 2 hours compound incubation, PDGF-BB stimulated", "experimental": "as §2, §3, §4"}}, "note": "pIC50: −log10 of the molar value."}
{"smiles": "Cc1cc(C(C)Nc2ccccc2S(=O)(=O)NC(=O)C(F)F)c2nc(N3Cc4ccc(F)cc4C3)n(C)c(=O)c2c1", "note": "(single isomer, unassigned)", "values": [{"measurement": "pIC50", "setting": "PI3Kα", "result": "< 6.00"}, {"measurement": "pIC50", "setting": "PI3Kα H1047R", "result": "< 6.00"}, {"measurement": "pIC50", "setting": "[1]", "result": "5.30 to 6.00"}, {"measurement": "pIC50", "setting": "[2]", "result": "< 5.30"}]}
